# Data from patent US10766888B1, “HMOX1 inducers” (Mitobridge Inc., priority 2019, dated 2020).
# Assay: Kinetic solubility
# Type: physicochemical
# Details: Dulbecco's phosphate buffer saline (DPBS), aqueous buffer, kinetic from dmso stock, DPBS pH 7.4, 25° C., 200 μM test compound
# Procedure: Example 144. Kinetic Solubility
# 10 μL of 10 mM DMSO stock solution were aliquotted to 490 μL of DMSO solution and separately 490 μL of Dulbecco's phosphate buffer saline, DPBS, pH 7.4 solution in 1.2 mL 96-well plates in duplicate. Final concentration was 200 μM of the test compound. Samples were incubated at 25° C. with shaking at 200 rpm for 16 h. Samples were centrifuged at 3500 rpm for 20 min at 25° C., and supernatant was submitted for HPLC analysis.
# Kinetic solubility was measured using the following equation: […]
row,solubility at 16 h [µM],SMILES
1,3.3,"CCn1c(Nc2nc3ccc(OC(F)(F)F)cc3o2)nc2cc(C(=O)NCCOC)ccc21 [Example 85, 1-ethyl-N-(2-methoxyethyl)-2-((6-(trifluoromethoxy)benzo[d]oxazol-2-yl)amino)-1H-benzo[d]imidazole-5-carboxamide]"
2,3.9,"COCCNC(=O)c1ccc2c(c1)nc(Nc1nc3ccc(OC(F)(F)F)cc3o1)n2CC1CCOC1 (centres unmarked) [Example 88, N-(2-methoxyethyl)-1-((tetrahydrofuran-3-yl)methyl)-2-((6-(trifluoromethoxy)benzo[d]oxazol-2-yl)amino)-1H-benzo[d]imidazole-5-carboxamide]"
